IC50 data for one compound are collected here from ChEMBL document CHEMBL2074145, “Active transport of fluorescent P-glycoprotein substrates: evaluation as markers and interaction with inhibitors” (Biochem Biophys Res Commun, 2001).

Amino acid sequences for entries named in this document (tags omitted).
UniProt P08183, whole entry: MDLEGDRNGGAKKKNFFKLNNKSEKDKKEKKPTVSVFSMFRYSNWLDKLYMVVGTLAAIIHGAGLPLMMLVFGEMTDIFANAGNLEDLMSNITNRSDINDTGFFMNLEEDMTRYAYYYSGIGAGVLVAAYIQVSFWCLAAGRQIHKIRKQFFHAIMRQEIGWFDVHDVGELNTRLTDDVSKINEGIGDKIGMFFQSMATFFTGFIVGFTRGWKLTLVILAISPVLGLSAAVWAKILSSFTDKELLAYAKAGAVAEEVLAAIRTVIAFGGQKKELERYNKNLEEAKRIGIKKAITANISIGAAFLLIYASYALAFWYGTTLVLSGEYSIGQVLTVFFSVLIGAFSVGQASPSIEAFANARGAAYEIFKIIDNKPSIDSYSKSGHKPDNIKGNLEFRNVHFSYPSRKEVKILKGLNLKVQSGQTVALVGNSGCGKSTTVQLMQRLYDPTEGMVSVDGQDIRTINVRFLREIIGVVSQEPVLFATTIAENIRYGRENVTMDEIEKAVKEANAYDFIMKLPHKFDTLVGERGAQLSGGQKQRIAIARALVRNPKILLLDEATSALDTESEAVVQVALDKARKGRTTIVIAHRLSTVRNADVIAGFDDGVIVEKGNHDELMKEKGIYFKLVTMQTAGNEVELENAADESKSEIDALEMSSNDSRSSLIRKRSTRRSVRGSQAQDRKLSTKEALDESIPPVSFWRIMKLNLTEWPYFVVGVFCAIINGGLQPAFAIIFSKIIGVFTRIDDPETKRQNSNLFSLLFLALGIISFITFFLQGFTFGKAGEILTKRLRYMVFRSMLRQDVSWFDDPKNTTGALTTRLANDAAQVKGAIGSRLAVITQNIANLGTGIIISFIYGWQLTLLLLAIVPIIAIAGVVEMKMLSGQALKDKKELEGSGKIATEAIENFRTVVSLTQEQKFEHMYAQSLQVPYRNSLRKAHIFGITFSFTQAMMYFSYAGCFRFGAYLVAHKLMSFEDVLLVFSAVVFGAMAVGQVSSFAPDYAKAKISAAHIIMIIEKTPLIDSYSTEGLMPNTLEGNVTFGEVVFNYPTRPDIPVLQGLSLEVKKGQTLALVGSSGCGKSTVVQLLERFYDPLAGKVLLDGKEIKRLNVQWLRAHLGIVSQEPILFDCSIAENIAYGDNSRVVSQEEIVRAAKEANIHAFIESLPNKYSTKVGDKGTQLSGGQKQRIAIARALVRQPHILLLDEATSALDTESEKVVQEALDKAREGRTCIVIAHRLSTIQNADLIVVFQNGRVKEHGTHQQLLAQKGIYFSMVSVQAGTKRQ

SMILES strings stand for the structures. Bounds are passed on as bounds.

As a reminder, the IC50 is the point on the concentration scale where inhibition reaches its midpoint. Lower therefore signals greater potency in that assay.

The target of experiment [1] is T1, ATP-dependent translocase ABCB1 (Homo sapiens, UniProt P08183).
Experiment [2] has as its target T1, ATP-dependent translocase ABCB1. This is another data set of the same source.
For experiment [3] the target is unchanged. The source holds these as a separate data set.
Experiment [4] has the same target. This is another data set of the same source.
Experiment [5] shares this target. This is another data set of the same source.
For experiment [6] the target is unchanged. This is another data set of the same source.
Experiment [7] has the same target. The source holds these as a separate data set.

For `COC(=O)C1=C(C)NC(C)=C(C(=O)OCCN(C)Cc2ccccc2)C1c1cccc([N+](=O)[O-])c1` (configuration not stated) [NICARDIPINE], the concentration for half-maximal inhibition (IC50) in experiment [1] is above 25.8 µM; in experiment [2], 14.6 µM; in experiment [3], 3.2 µM; in experiment [4] it was 5.6 µM; in experiment [5], 6.6 µM; in experiment [6], 11.7 µM. The compound further came in with an IC50 in experiment [7] of 7.1 µM.
